# Results reported in US10098878B2, “HIF-2α inhibitors for treating iron overload disorders” (The Board of Regents of the University of Texas System, priority 2014, dated 2018).
# System: 786-O-Hif-Luc cells
# Experiment: Luciferase Assay
# Assay type: cell-based
# Conditions: 24 h, read-out: Luciferase EC50
smiles,measurement,value
"N#Cc1ccc(Oc2cc(F)cc(F)c2)c2c1[C@H](O)C(F)(F)C2 [Compound 4, (S)-7-(3,5-Difluorophenoxy)-2,2-difluoro-3-hydroxy-2,3-dihydro-1H-indene-4-carbonitrile]",EC50,74 nM
